This is an account of results in paper PMC5361215 (Scientific Reports, 2017).

Protein sequences, listed by entry. Tags and fused reporters are not part of them. Residues count along the entry.
UniProt P06828, 19-539 K108G: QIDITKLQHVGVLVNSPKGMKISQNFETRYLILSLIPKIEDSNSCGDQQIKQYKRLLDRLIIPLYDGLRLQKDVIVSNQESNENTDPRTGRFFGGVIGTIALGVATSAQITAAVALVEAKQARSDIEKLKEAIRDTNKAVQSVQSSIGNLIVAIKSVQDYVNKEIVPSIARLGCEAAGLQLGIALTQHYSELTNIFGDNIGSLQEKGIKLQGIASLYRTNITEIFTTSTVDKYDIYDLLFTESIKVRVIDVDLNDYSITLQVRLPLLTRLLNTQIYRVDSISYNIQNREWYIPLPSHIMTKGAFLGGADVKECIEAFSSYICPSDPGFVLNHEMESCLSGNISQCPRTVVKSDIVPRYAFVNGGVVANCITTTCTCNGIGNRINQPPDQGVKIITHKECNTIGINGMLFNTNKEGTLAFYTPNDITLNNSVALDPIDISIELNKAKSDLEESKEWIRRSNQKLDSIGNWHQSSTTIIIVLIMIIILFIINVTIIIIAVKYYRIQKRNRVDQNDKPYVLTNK

The subject of one data set is HPIV3. The following applies: 24 h.
A further data set concerns Vero cells. The following applies: 24 h.
Data set [1] has as its target uncleaved HPIV3 F (K108G) (Human parainfluenza 3 virus, UniProt P06828, K108G). The class given is cell-based.
The format of data set [2] is physicochemical. The following applies: pH 7.4.

Broadly, the IC50 is the concentration at which inhibition is half-maximal. A lower IC50 goes with greater potency. Broadly, the IC90 is the point of the concentration-response curve where the effect stands at 90%. A high value points to weaker potency.

In the case of `CC[C@H](C)[C@H](NC(=O)[C@H](CO)NC(=O)[C@H](CC(=O)O)NC(=O)[C@H](CC(C)C)NC(=O)[C@H](CCCCN)NC(=O)CNC(=O)[C@H](CC(N)=O)NC(=O)[C@H](CO)NC(=O)[C@H](CCCNC(=N)N)NC(=O)[C@H](CCCNC(=N)N)NC(=O)[C@@H](NC(=O)[C@H](Cc1c[nH]c2ccccc12)NC(=O)[C@H](CCC(=O)O)NC(=O)[C@H](CCCCN)NC(=O)[C@H](CO)NC(=O)[C@H](CCC(=O)O)NC(=O)[C@H](CCC(=O)O)NC(=O)[C@H](CC(C)C)NC(=O)[C@H](CC(=O)O)NC(=O)[C@H](CO)NC(=O)[C@H](CCCCN)NC(=O)[C@H](C)NC(=O)[C@H](CCCCN)NC(=O)[C@H](CC(N)=O)NC(=O)[C@H](CC(C)C)NC(=O)[C@@H](NC(=O)[C@@H](NC(=O)[C@H](CO)NC(=O)[C@@H](NC(=O)[C@H](CC(=O)O)NC(=O)[C@@H](NC(=O)[C@@H]1CCCN1C(=O)[C@H](CC(=O)O)NC(=O)[C@H](CC(C)C)NC(=O)[C@H](C)NC(=O)[C@@H](NC(C)=O)C(C)C)[C@@H](C)CC)[C@@H](C)CC)[C@@H](C)CC)C(C)C)[C@@H](C)CC)C(=O)NCC(=O)N[C@@H](CO)C(=O)NCC(=O)N[C@@H](CO)C(=O)NCC(=O)N[C@@H](CS)C(N)=O` [VG], in the data set with HPIV3, the IC50 came out at 0.001 µM and the IC90 stood at 0.28 ± 0.247 µM. Moreover, in the data set on Vero cells, the “Cytotoxicity in monolayer culture CC50” value is listed as >10,000 nM. Also, in data set [1], the “RBCs free (released)” value was found to be 80% and the “RBCs reversibly bound (HN-receptor engagement only)” value is reported as 20%. Moreover, in data set [2], the “Aggregate formation (ANS fluorescence)” value is “unable to form aggregates”.
